We go through 67 compounds from PubChem BioAssay AID2717 (Broad Institute, 2010).

This is a selection; strong and weak results do not stand in their true shares. Active and inactive are the calls of the source. Rule as the data show it: active = inhibition above about 75%; inconclusive = no clear call, values can overlap the other calls; inactive = below that; tested in HMLE shEcad cells.

This test can be described thus: cancer stem cell viability inhibitors, primary screen, luminescence (AID 2717). Conditions: cancer stem cell-like cells viability, at 7.5 µM, active compounds read high.
As for `CCCOP(=S)(Nc1nc(N)cc(=O)[nH]1)OCCC`, the inhibition was inactive: -7.32%.
Regarding `CCOP(=O)(Nc1cccc2ccccc12)OCC`, the inhibition was inactive: -1.14%.
The figure for `CCOP1(=S)c2c(C)nn(CCC#N)c2N=C(c2ccccc2F)N1C` (configuration not stated) is inactive: -5.58%; for `O=C(O)c1cccc(Nc2c([N+](=O)[O-])cc([N+](=O)[O-])cc2[N+](=O)[O-])c1` it is inactive: 2.72%.
On to `O=P(Nc1nccs1)(Oc1ccccc1)Oc1ccccc1`, for which the inhibition was inactive: 8.93%.
The figure for `O=P(Nc1nccs1)(c1ccccc1)c1nc2ccccc2s1` (configuration not stated) is inactive: -0.91%; for `CS(=O)(=O)c1cc([N+](=O)[O-])c2no[n+]([O-])c2c1` it is inactive: -26.9%; for `Nc1ccccc1[As](=O)(O)c1ccccc1` it is inactive: -4.7%.
Turning to `O=C(O)COc1ccc([As](=O)(O)O)cc1[N+](=O)[O-]`, the inhibition was inactive: -1.37%.
With `NC(=O)Nc1ccc([As](=O)(O)O)cc1` the figure was inactive: 2.51%; with `N#CCCN(C(=O)COC(=O)C(O)(c1ccccc1)c1ccccc1)c1ccc(F)cc1`, inactive: -22.1%.
For the compound `CN(C(=O)Cc1ccccc1)[C@@H]1CC[C@]2(CCCO2)C[C@H]1N1CCCC1`, the inhibition was inactive: -5.16%.
Consider `CCOP1(=S)c2c(C)nn(CCC#N)c2N=C(c2ccc(F)cc2)N1C` (configuration not stated), for which the inhibition was inactive: -5.89%.
In the case of `O=[N+]([O-])c1ccc2c(c1)nnn2O`, the inhibition is inactive: -17.3%.
With `CN(C)C(=O)c1cc([N+](=O)[O-])cc2c1-c1c(cc([N+](=O)[O-])cc1[N+](=O)[O-])C2=O` the figure was inactive: 64.6%; with `CC1=NCCc2c1[nH]c1ccccc21.O=[N+]([O-])c1cc([N+](=O)[O-])c(O)c([N+](=O)[O-])c1`, inactive: -3.32%.
As to `CN(C(=O)Cc1ccc(Cl)c(Cl)c1)[C@H]1CC[C@@]2(CCCO2)C[C@@H]1N1CCCC1`, the inhibition was inactive: -16.7%.
As for `O=[N+]([O-])c1cc([N+](=O)[O-])c(Nc2cccnc2)c([N+](=O)[O-])c1`, the inhibition is inactive: 2.58%.
With `C[As](=O)(O)c1cccc(C(=O)O)c1`, the inhibition is inactive: -4.51%.
For the compound `O=[As](O)(c1ccc(O)cc1)c1ccccc1O`, the inhibition was inactive: -13.6%.
With `COc1cc(C(=O)NCC2(N3CCOCC3)CCCCC2)ccc1OCC(C)C` the figure was inactive: 40.6%; with `Cc1ccc(OP(=O)(Nc2ccc([N+](=O)[O-])cn2)Oc2ccc(C)cc2)cc1`, inactive: -5.48%; with `CC(C)(C)c1ccc(OP(C)(=O)Nc2ccc(SC(F)(F)F)cc2)cc1` (configuration not stated), inactive: -14.8%.
The figure for `Cc1cccc(C)c1OP(C)(N)=O` (configuration not stated) is inactive: -11.7%; for `O=[N+]([O-])c1ccc2c(c1)C=Nc1ccccc1O2` it is inactive: 47.9%.
With `Cc1ccc2nc3c(c(C)c2c1)CC(C(Cl)Cl)S3` (configuration not stated) the figure was inactive: 22.3%; with `CCOC(=O)c1ccc(NP(C)(=O)Oc2ccccc2)cc1` (configuration not stated), inactive: -4.82%; with `ClCCSc1nnc(-c2cccnc2)o1`, inactive: 12.1%.
For the compound `COc1ccccc1OP(C)(=O)Nc1ccc(C)cc1` (configuration not stated), the inhibition was inactive: -4.89%.
With `Cc1ccc(NP(C)(=O)Oc2ccccc2)c(C)c1` (configuration not stated), the inhibition was inactive: -0.222%.
With `CC(C)c1ccc(OP(=O)(Nc2ccccn2)Oc2ccccc2F)cc1` (configuration not stated), the inhibition is inactive: 8.71%.
The figure for `COc1ccccc1OP(C)(=O)Nc1cc(Cl)ccc1C` (configuration not stated) is inactive: -10.8%; for `CC(C)NC(=O)NP(=O)(Oc1ccccc1)Oc1ccccc1` it is inactive: 3.4%.
With `CCN(CC)C(=S)SC(NC=O)C(Cl)(Cl)Cl` (configuration not stated) the figure was inactive: -3.22%.
As to `COc1ccc(OP(C)(=O)Nc2cccc(F)c2)cc1` (configuration not stated), the inhibition was inactive: -1.7%.
For `O=[N+]([O-])c1cc([N+](=O)[O-])c(-c2ccn[nH]2)s1`, the inhibition is inactive: 10.4%.
With `Cc1cc(C)cc(OP(C)(N)=O)c1` (configuration not stated) the figure was inactive: 5.37%; with `Cc1c2c(nc3ccccc13)SC(C(Cl)Cl)C2` (configuration not stated), inactive: 3.93%.
The figure for `Cc1cc(=O)[nH]c(N[N+](=O)[O-])n1` is inactive: -4.05%; for `CCN(CC)CCCOC(=O)C(O)(c1ccccc1)c1ccccc1` it is inactive: -8.33%.
With `COc1ccc2nc(NP(=O)(c3ccccc3)c3ccccc3)sc2c1` the figure was inactive: 4.86%.
As to `COc1cc(I)ccc1[As](=O)(O)O`, the inhibition was inactive: -7.03%.
With `COc1ccc(N/C(=N/P(=O)(N2CCOCC2)N2CCOCC2)N2CCOCC2)cc1` the figure was inactive: -9.07%.
The figure for `COP1(=S)c2c(C)nn(CCC#N)c2N=C(c2ccc(F)cc2)N1C` (configuration not stated) is inactive: 5.83%; for `Cc1cccc(C)c1OP(C)(=O)Nc1ccc(SC(F)(F)F)cc1` (configuration not stated) it is inactive: 41.7%; for `CP(=O)(Nc1ccc(SC(F)(F)F)cc1)Oc1ccc(Cl)cc1` (configuration not stated) it is inactive: 43.2%.
`CP(=O)(Oc1ccccc1)OC(c1ccccc1)C(F)(F)F` (configuration not stated): the inhibition is inactive: -8.27%.
The figure for `O=C(COc1ccccc1)OC1CN2CCC1CC2` (configuration not stated) is inactive: 9.97%; for `CCc1ccc(OP(C)(=O)N2CCN(c3ccc([N+](=O)[O-])cc3)CC2)cc1` (configuration not stated) it is inactive: 24.1%; for `O=C(Nc1ccncc1[N+](=O)[O-])c1ccc([N+](=O)[O-])cc1[N+](=O)[O-]` it is inactive: -9.92%.
On to `Cc1cc(C)cc(OP(C)(=O)Nc2ccc(SC(F)(F)F)cc2)c1` (configuration not stated), for which the inhibition was inactive: 13.3%.
With `O=C(OC1CN2CCC1CC2)c1cccc([N+](=O)[O-])c1` (configuration not stated) the figure was inactive: -15.1%; with `CCOP(C)(=S)SCC(=O)NC(C)C(=O)O` (configuration not stated), inactive: -18%.
With `CCOC(=O)c1ccc(NP(C)(=O)Oc2ccc(OC)cc2)cc1` (configuration not stated) the figure was inactive: -25.9%.
The figure for `CCOC(=O)c1ccc(NC(=O)C(C)(CCl)SC)cc1` (configuration not stated) is inactive: 4.18%; for `O=[N+]([O-])c1cc([N+](=O)[O-])c(O)c([N+](=O)[O-])c1.c1ccc(Oc2ccncc2)cc1` it is inactive: -5.39%.
On to `CCC(C)N(CC(C)C)C(=S)SC(NC(C)=O)C(Cl)(Cl)Cl` (configuration not stated), for which the inhibition is inactive: 17.9%.
With `CP(=O)(Nc1ccccn1)Oc1ccc(Cl)cc1` (configuration not stated) the figure was inactive: 4.46%; with `CCOC(=O)Nc1ccc([As](=O)(O)O)c(O)c1`, inactive: -11.3%; with `Cc1cc(SC(NC(=O)c2ccccc2)C(Cl)(Cl)Cl)nc(C(C)C)n1` (configuration not stated), inactive: -5.08%.
For the compound `CP(=S)(Nn1cnnc1)Oc1ccccc1` (configuration not stated), the inhibition was inactive: -6.81%.
The figure for `CCOC(=O)Nc1cccc([As](=O)(O)O)c1` is inactive: 3.65%.
The figure for `O=P(Nc1ccccn1)(c1cccc2ccccc12)c1cccc2ccccc12` is inactive: -8.33%; for `Cc1cc(SC(NC=O)C(Cl)(Cl)Cl)ncn1` (configuration not stated) it is inactive: -8.31%; for `COc1ccccc1OP(C)(=O)Nc1ccccc1` (configuration not stated) it is inactive: -1.96%.
The figure for `CP(=O)(Nc1ccccc1Br)Oc1ccccc1` (configuration not stated) is inactive: 2.03%; for `O=[N+]([O-])c1ccc(Nc2ccc(Oc3ccc([N+](=O)[O-])cc3[N+](=O)[O-])cc2)c([N+](=O)[O-])c1` it is inactive: 15.2%.

The term inhibition denotes the drop in the measured response relative to a control, in per cent.
